## Reported logP (octanol/water) values for industrial, environmental and drug-like chemicals

From the experimental data distributed with OPERA 2.9.

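OPERA's authors assembled the values from existing databases and did not measure them anew. A listed value is a point estimate from one report or more. Method and conditions are not stated for these values. Where a salt, mixture or single isomer is drawn, the source does not say that exactly this form was tested. Some upstream entries may be estimates or bounds without being marked so.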

logP is the log10 of the octanol-water partition coefficient; higher is more lipophilic.
"n/a" marks a cell with nothing listed here.
The databases behind each value are named after "via".

| logP (octanol/water) | compound | name | via |
|---|---|---|---|
| -0.044 | CC[P+](c1ccccc1)(c1ccccc1)c1ccccc1.[I-] | Ethyltriphenylphosphonium iodide | eChemPortal |
| 0.14 | CCC(O)Cn1cnc2c(N)ncnc21 (centres undefined) | 1-(6-aminopurin-9-yl)butan-2-ol | OCHEM |
| -2.02 | C[C@@H]1O[C@@H](OC[C@H]2O[C@@H](Oc3c(-c4ccc(O)c(O)c4)oc4cc(O)cc(O)c4c3=O)[C@H](O)[C@@H](O)[C@@H]2O)[C@H](O)[C@H](O)[C@H]1O | Rutin | OCHEM |
| 1.5 | COc1ccccc1N1CCN(CCNC(=O)c2ccncn2)CC1 | n/a | OCHEM |
| 1.2 | COc1ccccc1N1CCN(CCNC(=O)c2ccncc2)CC1 | n/a | OCHEM |
| -2.7 | O=C1N(CO)C2C(N1CO)N(CO)C(=O)N2CO (centres undefined) | n/a | eChemPortal |
| 1.34 | CCOC(=O)CC(CC(=O)OCC)(OC(C)=O)C(=O)OCC | Citric acid, triethyl ester, acetate | eChemPortal |
| -2.12 | CCCCCCCCCCCCN(CCC(=O)[O-])CCC(=O)O.[Na+] | beta-Alanine, N-(2-carboxyethyl)-N-dodecyl-, monosodium salt | eChemPortal |
| -0.97 | O=C1NCCCN1 | Tetrahydro-2-pyrimidinone | eChemPortal |
| 3.406 | Cc1ccc2c(c1)C(=O)c1ccccc1C2=O | 2-Methylanthraquinone | eChemPortal |
| 0.27 | CNc1ncnc2c1ncn2[C@@H]1OC(CO)C[C@@H]1F (some centres undefined) | n/a | OCHEM |
| 3.959 | O=C1N=C(Nc2ccc(NC3=NC(=O)c4c(Cl)c(Cl)c(Cl)c(Cl)c43)cc2)c2c(Cl)c(Cl)c(Cl)c(Cl)c21 | n/a | eChemPortal |
| -1.2 | CCCC[P+](CCCC)(CCCC)CCCC.F.[F-] | Tetrabutylphosphonium hydrogen difluoride | eChemPortal |
| 3.1 | CCCCC(CC)CO (centres undefined) | 2-Ethyl-1-hexanol | OFMPub, eChemPortal |
| 1.295 | CCOc1ccccc1C(=O)O | Benzoic acid, 2-ethoxy- | eChemPortal |
| -2.9 | CCC(=O)[C-]1C(=O)CC(C(=O)[O-])CC1=O.CCC(=O)[C-]1C(=O)CC(C(=O)[O-])CC1=O.[Ca+2].[Ca+2] | Prohexadione-calcium | OCHEM, PubChem |
| -1.744 | CCN(CCC#N)c1ccc(/C=C/C2=[N+](C)c3ccccc3C2(C)C)c(C)c1.O=P([O-])(O)O | n/a | eChemPortal |
| -0.87 | O=C([O-])C(O)C(O)C1OB(O)OC1CO.O=C([O-])C(O)C(O)C1OB(O)OC1CO.[Ca+2] (centres undefined) | n/a | eChemPortal |
| 2.7 | CC(Cl)(Cl)CC(Cl)(Cl)Cl | 1,1,1,3,3-Pentachlorobutane | eChemPortal |
| -2.8 | Nc1ccc(N(CCO)CCO)cc1.O=S(=O)(O)O | (p-Ammoniophenyl)bis(2-hydroxyethyl)ammonium sulphate | eChemPortal |
| 1.9 | Oc1ccc2ccc(O)cc2c1 | 2,7-Naphthalenediol | OCHEM |
| -0.33 | COC(=O)CC(C)=O | Methyl acetoacetate | PubChem, eChemPortal |
| -1.8 | OCC(CO)(CO)COCC(CO)(CO)CO | Dipentaerythritol | eChemPortal |
| -4.02 | Cc1ccc2nc(-c3ccc(NC(=O)/C(C#N)=C/c4ccc(N(C)CCS(=O)(=O)[O-])cc4)cc3)sc2c1S(=O)(=O)[O-].[Na+].[Na+] | n/a | eChemPortal |
| -2.86 | COC(=O)c1cc(C(=O)OC)cc(S(=O)(=O)[O-])c1.[Na+] | Sodium 3,5-bis(methoxycarbonyl)benzenesulfonate | eChemPortal |
| -3.51 | Nc1ccn([C@@H]2O[C@H](COP(=O)(O)O)[C@@H](O)[C@H]2O)c(=O)n1 | 5'-Cytidylic acid | eChemPortal |
| 2.29 | CN(C)c1nc(=O)nc(N(C)C)[nH]1 | 4,6-Bis(dimethylamino)-1,3,5-triazin-2(1H)-one | OCHEM |
| -2.29 | C[N+](C)(CCO)CC(O)C[N+](C)(C)CCO.[Cl-].[Cl-] | n/a | eChemPortal |
| -1.97 | CCCOCC[N+](C)(C)C.[I-] | N,N,N-Trimethyl-2-propoxyethan-1-aminium iodide | OCHEM |
| -0.5 | O=S(=O)([O-])OCCS(=O)(=O)c1ccc(/N=N/c2c(S(=O)(=O)[O-])cc3cc(Nc4nc(Cl)nc(Cl)n4)ccc3c2O)cc1.[Na+].[Na+] | Everzol Orange GR | eChemPortal |
| -1.83 | O=S(=O)([O-])CS(=O)(=O)[O-].[K+].[K+] | Methanedisulfonic acid potassium salt (1:2) | eChemPortal |
| -0.43 | C#CCN | 2-Propyn-1-amine | OCHEM |
| -1.96 | NC(=O)C1=CN([C@@H]2O[C@H](CO[P@@](=O)([O-])O[P@@](=O)([O-])OC[C@H]3O[C@@H](n4cnc5c(N)ncnc54)C(O)C3O)C(O)C2O)C=CC1.[Na+].[Na+] (some centres undefined) | Dihydronicotinamide-adenine dinucleotide, disodium salt | eChemPortal |
| 0.06 | O=S1(=O)OCCCO1 | 1,3,2-Dioxathiane, 2,2-dioxide | eChemPortal |
| 5.43 | C=Cc1ccccc1C=C | 1,2-Divinylbenzene | OCHEM |
| 0.36 | NC1CCC1.NC1CCC1.[Cl-].[Cl-].[Pt+2] | Platinum(2+) chloride--cyclobutanamine (1/2/2) | OCHEM |
| 0.9 | COc1cc(C)cc(O)c1 | 3-Methoxy-5-methylphenol | OCHEM |
| -1.8 | CC(N)CN (centres undefined) | 1,2-Diaminopropane | PubChem, eChemPortal |
| 0.14 | O=S(=O)([N-]Cl)c1ccccc1.[Na+] | Chloramine B | eChemPortal |
| -3.88 | O=S(=O)([O-])CCN1CCN(CCO)CC1.[Na+] | Sodium 2-[4-(2-hydroxyethyl)piperazin-1-yl]ethanesulfonate | eChemPortal |
| 2.6 | O=Cc1cccc(Cl)c1Cl | 2,3-Dichlorobenzaldehyde | eChemPortal |
| 1.01 | CC(C)COC(=O)c1cc(=O)[nH]c(=O)[nH]1 | n/a | OCHEM |
| 2.1 | COC(=O)c1cccc(C(=O)OC)c1 | Dimethyl isophthalate | eChemPortal |
| 5.39 | Cc1ccc(C)c(C(C)c2ccccc2)c1 (centres undefined) | 2-(1-Phenylethyl)-p-xylene | OCHEM |
| -0.38 | C[Si]1(C)N[Si](C)(C)N[Si](C)(C)N1 | 2,2,4,4,6,6-Hexamethylcyclotrisilazane | eChemPortal |

A selection of 3 entries from above:

| compound | name | logP (octanol/water) | via |
|---|---|---|---|
| COC(=O)c1cccc(C(=O)OC)c1 | Dimethyl isophthalate | 2.1 | eChemPortal |
| OCC(CO)(CO)COCC(CO)(CO)CO | Dipentaerythritol | -1.8 | eChemPortal |
| NC(=O)C1=CN([C@@H]2O[C@H](CO[P@@](=O)([O-])O[P@@](=O)([O-])OC[C@H]3O[C@@H](n4cnc5c(N)ncnc54)C(O)C3O)C(O)C2O)C=CC1.[Na+].[Na+] (some centres undefined) | Dihydronicotinamide-adenine dinucleotide, disodium salt | -1.96 | eChemPortal |